Test system: CD4+ T cells
Assay: IFN-γ ELISPOT of CD4+ T cells presensitized with overlapping NY-ESO-1 18 mer peptides
Type: cell-based, human
Method: Peripheral blood mono-nuclear cells (“PBMCs”) were separated from heparinized blood via Ficoll density gradient separation, using standard, art recognized techniques. Once this was done, the CD4^+ and CD8^+ T cells were separated from each other using magnetic cell sorting techniques which are well known to the art, producing CD4^+, CD8^+, and CD4^−/CD8^− cell populations.
A series of 18 mer peptides were prepared from the amino acid sequence of NY-ESO-1 as set forth in, e.g., U.S. Pat. No. 5,804,381, incorporated by reference. The peptides were designed to cover the entire sequence of NY-ESO-1, and to provide overlap.
The peptides were then individually pulsed to antigen presenting cells (“APCs”). These were CD4^−/CD8^− PBMCs taken from the same subjects who had provided the CD4^+ and CD8^+ cells. These APCs were irradiated with 3000 rads, and then pulsed with one of the peptides, at a concentration of 10 μg/ml, for 1 hour, in serum free medium. These APCs were then washed, and added to the CD4^+ cells. In the pulsing experiments, the peptides were solubilized in DMSO (100%) and then diluted with PBS to a final concentration of 10% DMSO. The CD4^+ cells had been cultured in a medium of L-arginine (242 mg/l), L-asparagene (50 mg/l), L-glutamine (300 mg/l), penicillin (10 IU/ml), streptomycin (100 μg/ml), 1% non-essential amino acids, 10% HS, and 10 ng/ml of recombinant human IL-2.
The CD4^+ T cells were restimulated weekly with 1 μg/ml of the peptide being used. […] The number of blue spots/well represented the proportion of NY-ESO-1 specific CD4^+ T-cells/well was finally counted under the microscope.
The EBV-B-cells were generated from each patients' PBMC following standard methods and maintained in RPMI 1640 medium supplemented with 10 mM Hepes buffer, L-arginine (242 mg/l), L-asparagine (50mg/l), L-glutamine (300 mg/l), penicillin (10 IU/ml), streptomycin (100 μg/ml), 1% non-essential amino acids, and 10% FCS. All EBV-B-cells had been analyzed in RT-PCR for NY-ESO-1 mRNA expression and were negative except for the MZ-1257 EBV-B-cell line. […]

p121-138: synthetic 18 mer peptide, amino acids 121-138 of NY-ESO-1
− (− indicates <50 spots): Patient T cells 1 (day 12, CD4+ T cells of patient 1, autologous peptide pulsed EBV-B cells as targets) | Patient T cells 2 (day 12, CD4+ T cells of patient 2, autologous peptide pulsed EBV-B cells as targets) | Patient T cells 3 (day 12, CD4+ T cells of patient 3, autologous peptide pulsed EBV-B cells as targets)

— patent US7632506B2, “Identification of new NY-ESO-1 epitopes recognized by CD4+ T-cells” (Ludwig Institute for Cancer Research, priority 2005, dated 2009)
